Where two headings read alike, the source gives them in different places.

The chains behind the UniProt entries cited, without tags or fusion partners. Residues count along the entry.
UniProt P42226, whole entry: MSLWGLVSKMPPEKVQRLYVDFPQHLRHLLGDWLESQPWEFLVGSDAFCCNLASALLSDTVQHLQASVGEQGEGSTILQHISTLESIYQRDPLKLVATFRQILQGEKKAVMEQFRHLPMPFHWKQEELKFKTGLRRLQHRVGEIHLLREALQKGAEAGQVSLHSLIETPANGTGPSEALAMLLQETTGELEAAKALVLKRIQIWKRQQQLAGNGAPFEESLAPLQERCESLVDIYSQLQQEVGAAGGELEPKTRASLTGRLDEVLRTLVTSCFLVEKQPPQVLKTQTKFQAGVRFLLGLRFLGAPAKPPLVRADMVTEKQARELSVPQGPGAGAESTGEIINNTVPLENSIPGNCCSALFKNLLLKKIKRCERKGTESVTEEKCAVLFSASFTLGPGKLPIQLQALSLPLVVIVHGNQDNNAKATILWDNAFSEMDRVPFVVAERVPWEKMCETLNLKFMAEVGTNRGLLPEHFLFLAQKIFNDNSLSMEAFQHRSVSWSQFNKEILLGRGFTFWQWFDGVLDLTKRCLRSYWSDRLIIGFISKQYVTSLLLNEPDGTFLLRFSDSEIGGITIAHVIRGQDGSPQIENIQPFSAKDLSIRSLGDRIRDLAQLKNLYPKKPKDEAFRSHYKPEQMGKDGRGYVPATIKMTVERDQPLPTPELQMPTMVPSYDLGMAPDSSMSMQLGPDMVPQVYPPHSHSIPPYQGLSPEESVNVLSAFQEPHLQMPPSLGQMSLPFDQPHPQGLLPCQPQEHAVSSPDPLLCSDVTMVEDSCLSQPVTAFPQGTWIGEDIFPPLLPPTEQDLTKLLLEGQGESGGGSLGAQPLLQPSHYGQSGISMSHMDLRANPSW
UniProt P42226, 123-632 limits assumed: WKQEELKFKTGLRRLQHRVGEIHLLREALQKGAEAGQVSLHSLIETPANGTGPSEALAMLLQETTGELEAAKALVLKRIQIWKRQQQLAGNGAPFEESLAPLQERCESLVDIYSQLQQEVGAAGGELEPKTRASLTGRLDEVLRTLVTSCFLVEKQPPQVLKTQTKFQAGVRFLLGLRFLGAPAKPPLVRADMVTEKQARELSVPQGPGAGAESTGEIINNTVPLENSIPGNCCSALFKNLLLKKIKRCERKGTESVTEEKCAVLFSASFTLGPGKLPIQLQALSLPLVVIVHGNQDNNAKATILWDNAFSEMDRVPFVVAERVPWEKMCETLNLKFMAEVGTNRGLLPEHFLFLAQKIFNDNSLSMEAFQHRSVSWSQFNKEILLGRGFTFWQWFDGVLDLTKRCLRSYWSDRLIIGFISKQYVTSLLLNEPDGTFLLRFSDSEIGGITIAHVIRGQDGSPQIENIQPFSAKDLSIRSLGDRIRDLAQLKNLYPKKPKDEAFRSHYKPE

Assay [1] addresses biotinylated truncated STAT6 (123-632)-avi (Homo sapiens, UniProt P42226). In words: STAT6 HTRF binding assay. The conditions noted are these: read-out: STAT6 HTRF: Average IC50, 0.15 nM biotinylated truncated STAT6 (123-632)-avi, 20 nM fluorescein-labeled probe.
Assay [2] deals with STAT6 (Homo sapiens, UniProt P42226). In words: STAT6 MSD degradation in A549 cells. As to conditions: for DC50: read-out: STAT6 MSD degradation DC50 (nM) 24 h. An outline of the steps: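 A549 cells treated with a 9-point 1:3 series (top up to 10 uM) for 4 to 24 hours at 37° C., then lysed in RIPA. STAT6 quantified by sandwich MSD electrochemiluminescence immunoassay. DC50 and Dmax from four-parameter nonlinear fit, reported as letter-code bins.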

As usually defined, the IC50 is the concentration that gives 50% inhibition. As a reminder, the DC50 is the concentration giving 50% degradation. In the case of `COc1cc(N2CCC3(CC2)CCN(c2cc(F)c(-c4cc(C5=CCCN(C(=O)CCn6cccn6)C5)c(F)c5[nH]c(C(=O)N(C)C)cc45)cc2F)C3)c(F)cc1NC1CCC(=O)NC1=O` (stereo not drawn), the IC50 in assay [1] (HTRF binding) was below 100 nM. In assay [2], the “STAT6 MSD degradation Dmax % 24 h” value was “A (A (>90%))” and the DC50 fell in the range of 1 to 10 nM.
As for `CN(C)C(=O)c1cc2cc(C3=CCCN(C(=O)CCn4ccnn4)C3)cc(N3CC(C(=O)N4CCC(CN5CCN(c6cccc(C7CCC(=O)NC7=O)c6)CC5)CC4)C3)c2o1` (stereo not drawn), the IC50 in assay [1] (30 minutes at room temperature) was below 100 nM. In assay [2], the “STAT6 MSD degradation Dmax % 24 h” value was “A (A (>90%))” and the DC50 lay in the range of 1 to 10 nM.
As to `COc1cc(N2CC3(CCN(c4cc(F)c(-c5cc(C6=CCCN(C(=O)CCn7cccn7)C6)c(F)c6[nH]c(C(=O)N(C)C)cc56)cc4F)CC3)C2)c(F)cc1NC1CCC(=O)NC1=O` (stereo not drawn), the IC50 in assay [1] (HTRF binding) was below 100 nM. In addition, in assay [2], the “STAT6 MSD degradation Dmax % 24 h” value is recorded as “B (B (>70-90%))” and the DC50 lay within 10 to 100 nM.
For `C[C@H](Cn1cccn1)C(=O)N1CCC=C(c2cc(-c3ccc(C4CCN(c5ccc(NC6CCC(=O)NC6=O)cc5F)CC4)cc3)c3cc(C(=O)N(C)C)[nH]c3c2F)C1` (stereo partly drawn) the same measures were 100 to 1000 nM, “B (B (>70-90%))” and 1 to 10 nM.
The corresponding values for `CC(=O)N1CCC=C(c2cc(-c3ccc(C4CCN(c5cccc6c5n(C)c(=O)n6C5CCC(=O)NC5=O)CC4)cc3C(F)(F)F)c3cc(C(=O)N(C)C)[nH]c3c2F)C1` (stereo not drawn) are 100 to 1000 nM, “B (B (>70-90%))” and below 1 nM.
For `COc1cc([C@H]2CC[C@@H](c3ccc(-c4cc(C5=CCCN(C(=O)CCn6cccn6)C5)c(F)c5[nH]c(C(=O)N(C)C)cc45)cc3)CC2)c(F)cc1NC1CCC(=O)NC1=O` (relative stereo) the same measures were 100 to 1000 nM, “B (B (>70-90%))” and 1 to 10 nM.
In the case of `COc1cc(N2CCC(c3ccc(-c4cc(C5=CCCN(C(=O)CCn6cccn6)C5)c(F)c5sc(C(=O)N(C)C)cc45)cc3)CC2)c(F)cc1NC1CCC(=O)NC1=O` (stereo not drawn), the IC50 in assay [1] (HTRF binding) fell in the range of 1000 to 10000 nM. For the same molecule, in assay [2], the “STAT6 MSD degradation Dmax % 24 h” value is listed as “B (B (>70-90%))” and the DC50 lay in the range of 10 to 100 nM.
For `COc1cc(N2CCN(CCc3cccc4c3n(C)c(=O)n4C3CCC(=O)NC3=O)CC2)ccc1-c1cc(C(=O)N(C)C)cc2cc(C3=CCCN(C(=O)CCn4ccnn4)C3)[nH]c12` (stereo not drawn) the same measures were below 100 nM, “A (A (>90%))” and 1 to 10 nM.
The corresponding values for `COc1cc(CCN2CCN(c3ccc(C4CCC(=O)NC4=O)cc3F)CC2)ccc1-c1cc(C2=CCCN(C(=O)CCn3ccnn3)C2)c(F)c2[nH]c(C(=O)N(C)C)cc12` (stereo not drawn) are below 100 nM, “A (A (>90%))” and below 1 nM.
Regarding `CN(C)C(=O)c1cc2c(-c3ccc(N4CCN(C5CCN(c6ccc(C7CCC(=O)NC7=O)cc6F)CC5)CC4)cc3)cc(C3=CCCN(C(=O)CCn4cccn4)C3)c(F)c2[nH]1` (stereo not drawn), in assay [1] (HTRF binding), the IC50 was below 100 nM. Besides, in assay [2], the “STAT6 MSD degradation Dmax % 24 h” value was “A (A (>90%))” and the DC50 is below 1 nM.
Regarding `CC(C)C(=O)N1CCC=C(c2cc(-c3ccc(N4CCN(CCc5cccc6c5n(C)c(=O)n6C5CCC(=O)NC5=O)CC4)cc3OC(F)F)c3cc(C(=O)N(C)C)[nH]c3c2F)C1` (stereo not drawn), the IC50 in assay [1] (30 minutes at room temperature) fell in the range of 100 to 1000 nM. Moreover, in assay [2], the “STAT6 MSD degradation Dmax % 24 h” value is “A (A (>90%))” and the DC50 was below 1 nM.
`COc1cc(N2CCN(CCc3ccc(C4CCC(=O)NC4=O)cc3F)CC2=O)ccc1-c1cc(C2=CCCN(C(=O)CCn3ccnn3)C2)c(F)c2[nH]c(C(=O)N(C)C)cc12` (stereo not drawn): the concentration for half-maximal inhibition (IC50) in assay [1] (HTRF binding) is below 100 nM. In assay [2], the “STAT6 MSD degradation Dmax % 24 h” value is recorded as “A (A (>90%))” and the DC50 is below 1 nM.
The corresponding values for `CC(C)C(=O)N1CCC=C(c2cc(-c3ccc(N4CCN(CCc5cccc6c(C7CCC(=O)NC7=O)nn(C)c56)CC4)cc3F)c3cc(C(=O)N(C)C)[nH]c3c2F)C1` (stereo not drawn) are 1000 to 10000 nM, “A (A (>90%))” and 1 to 10 nM.
For `CN(C)C(=O)c1cc2c(-c3cc(F)c(N4CCN(c5ccc(NC6CCC(=O)NC6=O)cc5F)CC4)cc3F)cc(C3=CCCN(C(=O)CCn4cccn4)C3)c(F)c2[nH]1` (stereo not drawn) the same measures were below 100 nM, “B (B (>70-90%))” and below 1 nM.
For `COc1cc(C2CCN(c3cccc4c3n(C)c(=O)n4C3CCC(=O)NC3=O)CC2)ccc1-c1cc(C2CCCN(C(C)=O)C2)c(F)c2[nH]c(C(=O)N(C)C)cc12` (stereo not drawn), the IC50 in assay [1] (30 minutes at room temperature) lay in the range of 1000 to 10000 nM. Moreover, in assay [2], the “STAT6 MSD degradation Dmax % 24 h” value is “A (A (>90%))” and the DC50 is below 1 nM.
